Test: in vitro
Settings: human

Work on `COc1ccc2c3c(c4cc(OC)c(OC)cc4c2c1)C[C@H]1CCCCN1C3` [Cryptopleurine] yielded an IC50 of 0.027 µM.

Reference: publication PMC12396409, “Screening and hit evaluation of a microbial metabolite library against the pathogenic Plasmodium falciparum and Toxoplasma gondii parasites” (International Journal for Parasitology: Drugs and Drug …, 2025)
